pKi: −log10 of the molar value.

The experiment addresses T1, α1a-AR (Homo sapiens, UniProt P35348).
T1 construct: expressed in transfected cells; host or cells: COS-7
T1 sequence (P35348 1-466): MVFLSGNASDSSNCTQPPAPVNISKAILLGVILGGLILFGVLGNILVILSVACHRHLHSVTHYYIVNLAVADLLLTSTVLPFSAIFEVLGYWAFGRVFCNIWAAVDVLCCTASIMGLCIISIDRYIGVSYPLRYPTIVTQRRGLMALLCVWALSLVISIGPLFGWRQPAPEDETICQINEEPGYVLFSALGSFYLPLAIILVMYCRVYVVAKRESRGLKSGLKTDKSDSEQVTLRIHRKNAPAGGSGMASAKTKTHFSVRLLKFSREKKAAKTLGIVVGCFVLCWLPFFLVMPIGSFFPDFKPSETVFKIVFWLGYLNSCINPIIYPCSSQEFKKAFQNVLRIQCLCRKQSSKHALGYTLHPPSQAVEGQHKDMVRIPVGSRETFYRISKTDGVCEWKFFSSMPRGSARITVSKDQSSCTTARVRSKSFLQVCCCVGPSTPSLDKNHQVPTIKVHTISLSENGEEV
As to the kind of experiment: α1-Adrenergic receptor radio-ligand (125I-HEAT) binding assay, α1a subtype. The settings on record: COS-7 cell membranes. How it is done:
α1-Adrenergic Receptor Binding Assay: Preparation of COS Cell Membranes
Membranes were prepared from COS-7 cells that had been transfected with one of the three α1-AR subtypes by the following method. COS cells from ten 100 mm tissue culture plates were scraped into 5 mL TE (50 mM Tris-HCl, 5 mM EDTA, pH 7.4). The cell suspension was disrupted with a Brinkman Polytron, setting 8, for 10 sec. The disrupted cells were centrifuged at 1000×g for 10 min at 4° C. Supernatants were centrifuged at 34,500×g for 20 min at 4° C. The membrane pellets were suspended in 2 mL TNE (50 mM Tris-HCl, 5 mM EDTA, 150 mM NaCl, pH7.4). An aliquot of the membrane suspension was stored at −70° C. until use. The protein concentration was determined using the BioRad DC protein assay kit following membrane solubilization with Triton X-100.
Radio-Ligand Binding Assay
Triplicate determinations of radio-ligand binding in the presence of increasing: concentrations of testing compound were made. The reagents were added to 96-well polypropylene plate wells using the Biomek 1000 robot (Beckman Instruments). […] The radioactive content was analyzed in the TopCount microplate scintillation counter (Packard Instruments).

`COc1ccc(Br)cc1S(=O)(=O)N[C@H]1CC[C@@H](N2CCN(c3ccccc3OC(C)C)CC2)CC1` [Cpd 28, 5-Bromo-N-cis-{4-[4-(2-isopropoxy-phenyl)-piperazin-1-yl]-cyclohexyl}-2-methoxy-benzenesulfonamide]: the negative-log Ki (pKi) is 8.80.

Consider `COc1ccc(Br)cc1S(=O)(=O)N[C@H]1CC[C@H](N2CCN(c3ccccc3OC(C)C)CC2)CC1` [Cpd 56, 5-Bromo-N-trans-{4-[4-(2-isopropoxy-phenyl)-piperazin-1-yl]-cyclohexyl}-2-methoxy-benzenesulfonamide], for which the negative logarithm of the Ki (pKi) is 8.00.

The pKi is the Ki on a negative log10 scale, so that one unit is a factor of ten. A higher pKi goes with a low Ki.
